# Measurements as given in US4472286A, “Perfluoroalkyl anion/perfluoroalkyl cation ion pair complexes” (Ciba-Geigy Corporation, priority 1983, dated 1984).
# Assay: Surface tension of aqueous solutions (ASTM D-1331-56)
# Format: physicochemical
# Conditions: for Surface tension, cationic surfactant: Table 5
substance,measurement,setting,value
"3-(1,1,2,2-tetrahydroperfluoro-alkylthio)-2-hydroxypropyl-trimethylammonium chloride [Example C1]",Surface Tension,"Table 2b, 0.01% total actives, 100 mol % single surfactant",31.0
same,Surface Tension,"Table 2b, 0.1% total actives, 100 mol % single surfactant",21.6
same,Surface Tension,"Table 3, 0.0001%",67.4 dynes/cm
same,Surface Tension,"Table 3, 0.001%",49.6 dynes/cm
same,Surface Tension,"Table 3, 0.01%",28.1 dynes/cm
same,Surface Tension,"Table 3, 0.1%",21.6 dynes/cm
same,Surface Tension,"Table 3, 1.0%",19.5 dynes/cm
same,"Surface tension, cationic surfactant",0.001%,49.6
same,"Surface tension, cationic surfactant",0.01%,28.1
